This data set in a line: in vitro. Particulars: PAMPA, Permeability, Tables 1-3 and Example 6, ND = no detected permeability.

In turn, `CC(=O)N(CC#Cc1ccc(Cl)c(C(N)=O)c1)C[C@H]1C[C@@H](n2ccc3c(Cl)ncnc32)[C@H](O)[C@@H]1O` [II559, 2-chloro-5-(3-(N-(((1R,2R,3S,4R)-4-(4-chloro-7H-pyrrolo[2,3-d]pyrimidin-7-yl)-2,3-dihydroxycyclopentyl)methyl)acetamido)prop-1-yn-1-yl)benzamide] showed a Papp of 0.6 ± 0.16 nm/s.

The values are drawn from patent US20250017936A1, “CELL-POTENT BISUBSTRATE INHIBITORS FOR NICOTINAMIDE N-[…] (NNMT) AND USES THEREOF” (priority 2021, published 2025).
